The assay has as its target Importin-β, recombinant, non-tagged (human) (UniProt Q14974). Put plainly: pull-down; GST-GM130 (WT or S25D) with His-tagged RanQ69L and Importin-α FL or Importin-β at a molar ratio of 1:4:1 GM130:RanQ69L:Importin, or without RanQ69L; SDS-PAGE, Coomassie blue.

Turning to “RanQ69L (a constitutively active mutant), His-tagged (from UniProt P62826 1-216) (enzyme; other documents disagree on this pair)”, the fold reduction of Importin-β pulldown by GST-GM130-S25D with RanQ69L amounted to 9 fold, the percent of Importin-β released from GST-GM130-S25D by RanQ69L was determined as 70% and the percent of Importin-β released from GST-GM130-WT by RanQ69L came to 47%.

These data come from PMC6754406, “Ran pathway-independent regulation of mitotic Golgi disassembly by Importin-α” (Nature Communications, 2019).
